The chains behind the UniProt entries cited, without tags or fusion partners. Residues count along the entry.
UniProt P34969, 1-445 isoform 2: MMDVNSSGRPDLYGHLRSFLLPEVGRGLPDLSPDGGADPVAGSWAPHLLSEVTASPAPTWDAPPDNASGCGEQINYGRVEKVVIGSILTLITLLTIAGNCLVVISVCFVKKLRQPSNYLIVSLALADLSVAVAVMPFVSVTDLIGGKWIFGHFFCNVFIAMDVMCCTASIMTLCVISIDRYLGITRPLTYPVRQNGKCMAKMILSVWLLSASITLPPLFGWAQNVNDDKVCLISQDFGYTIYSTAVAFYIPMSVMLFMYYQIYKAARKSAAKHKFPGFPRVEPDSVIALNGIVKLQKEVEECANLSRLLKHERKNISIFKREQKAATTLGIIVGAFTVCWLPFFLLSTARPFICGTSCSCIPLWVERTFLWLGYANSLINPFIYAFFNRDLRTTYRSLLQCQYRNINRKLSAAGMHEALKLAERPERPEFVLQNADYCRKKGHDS

According to patent US7683077B2, “Piperidine derivative” (Ajinomoto Co., Inc., priority 2003, dated 2010):

What was measured:
Human 5-HT7a receptor = Human 5-HT7a receptor (Homo sapiens, UniProt P34969); experiment: Receptor binding assay (RBA) using 5HT-7 expression cells; settings: displacement of 2-[125I]-(+)-iodo-lysergic acid diethylamide, membranes of human 5-HT7a CHO-K1 cells
Human 5HT-7 = Human 5HT-7 (Homo sapiens, UniProt P34969); experiment: Evaluation of 5HT-7 agonist activity using 5HT-7 expression cells (cAMP); assay type: cell-based; settings: cAMP in h5HT7-C2 CHO-K1 cells, tested form: trifluoroacetate

Row | Compound | pIC50 (Human 5-HT7a receptor; tested form: hydrochloride) | pIC50 (Human 5-HT7a receptor; tested form: HCl) | also measured
1 | COc1ccccc1C(=C1CCN(CCNS(=O)(=O)c2cccs2)CC1)c1cccc(Cl)c1 | 7.4 | – | –
2 | COc1ccccc1C(=C1CCN(CCNS(=O)(=O)c2ccc(F)cc2F)CC1)c1cccc(Cl)c1 | 7.4 | – | –
3 | CCCN1CCC(=C(c2cccc(Cl)c2)c2cc(OC)ccc2OC)CC1 | – | – | pIC50 (Human 5-HT7a receptor; tested form: trifluoroacetate): 8.3; EC50 (Human 5HT-7; 10 μM serotonin = 100%): 23 nM; agonist action compared with serotonin (FIG. 1) (Human 5HT-7): stronger than that of serotonin
4 | COc1ccc(OC)c(S(=O)(=O)NCCN2CCC(=C(c3cccc(Cl)c3)c3ccccc3OC)CC2)c1 | – | 8.2 | –
5 | COc1ccccc1C(=C1CCN(CCNS(=O)(=O)c2ccccc2Br)CC1)c1cccc(Cl)c1 | – | 7.8 | –
